One may read the inhibition as the drop in the measured response relative to a control, in per cent.

The entries are a selection whose mix differs from that of the whole data set. Calls of active or inactive are those of the source.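 Rule for the calls: active = inhibition above a set limit, near 3 SD of compounds lacking own fluorescence (cut at about 54% in these data); inactive = the rest.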

The test deals with beta-arrestin 1 C-terminal peptide binding to AP2 beta2-adaptin appendage (human). Nature of the test: blockers of arrestin peptide association with AP2 adaptin – biochemical, GPCR trafficking, flow cytometry, primary screen (AID 504490).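 Note: plate controls were DMSO wells for no effect and 5 µM unlabelled arrestin peptide for full effect.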 The conditions noted are these: FITC-arrestin peptide / GST-AP2 beads, at 10 µM, hits give high values, AP2 beta2 appendage carries R879A mutation. In general terms: A flow cytometer gives signals particle by particle.
On to `CCC(C)N(CC(C)C)C(=S)SC(NC(C)=O)C(Cl)(Cl)Cl` (stereo not given), for which the inhibition was inactive: -2.12%.

`CCOC(=O)c1ccc(NC(=O)C(C)(CCl)SC)cc1` (stereo not given): the inhibition is inactive: -4.17%.

Take `O=C(OC1CN2CCC1CC2)c1cccc([N+](=O)[O-])c1` (stereo not given): the inhibition is inactive: -4.34%.

Consider `O=C(Nc1ccncc1[N+](=O)[O-])c1ccc([N+](=O)[O-])cc1[N+](=O)[O-]`, for which the inhibition is inactive: 6.68%.

Regarding `O=C(COc1ccccc1)OC1CN2CCC1CC2` (stereo not given), the inhibition was inactive: 9.6%.

`COP1(=S)c2c(C)nn(CCC#N)c2N=C(c2ccc(F)cc2)N1C` (stereo not given): the inhibition was inactive: 9.01%.

For `O=[N+]([O-])c1ccc(Nc2ccc(Oc3ccc([N+](=O)[O-])cc3[N+](=O)[O-])cc2)c([N+](=O)[O-])c1`, the inhibition is inactive: -20.7%.

On to `Cc1cc(SC(NC=O)C(Cl)(Cl)Cl)ncn1` (stereo not given), for which the inhibition was inactive: 3.6%.

`O=P(Nc1ccccn1)(c1cccc2ccccc12)c1cccc2ccccc12`: the inhibition was inactive: 9.56%.

As to `CCOC(=O)Nc1cccc([As](=O)(O)O)c1`, the inhibition was inactive: 9.12%.

Turning to `Cc1cc(SC(NC(=O)c2ccccc2)C(Cl)(Cl)Cl)nc(C(C)C)n1` (stereo not given), the inhibition was inactive: 8.23%.

For the compound `CCCCOc1ccc(C(=O)NCC2(N3CCCCC3)CCCCC2)cc1OC`, the inhibition was inactive: 0.66%.

In the case of `CC1CCNP(=O)(N(CCCl)CCCl)O1` (stereo not given), the inhibition was inactive: -12.5%.

In the case of `CCOC(=O)Nc1ccc([As](=O)(O)O)c(O)c1`, the inhibition is inactive: -11.1%.

As for `O=[N+]([O-])c1cc([N+](=O)[O-])c(-c2ccn[nH]2)s1`, the inhibition is inactive: 47.9%.

With `CC(C)NC(=O)NP(=O)(Oc1ccccc1)Oc1ccccc1`, the inhibition was inactive: 7.49%.

For `CCN(CC)C(=S)SC(NC=O)C(Cl)(Cl)Cl` (stereo not given), the inhibition was inactive: 5.92%.

In the case of `O=C(OC1CN2CCC1CC2)c1cccc2[nH]cnc12` (stereo not given), the inhibition is inactive: 22.4%.

Consider `COC(=O)C1(C)COP(=O)(N2CCCCCC2)OC1` (stereo not given), for which the inhibition is inactive: -4.5%.

For `CC(C)c1ccc(OP(=O)(Nc2ccccn2)Oc2ccccc2F)cc1` (stereo not given), the inhibition was inactive: 14.2%.

For `ClCCSc1nnc(-c2cccnc2)o1`, the inhibition is inactive: -1.24%.

In the case of `Cc1ccc2nc3c(c(C)c2c1)CC(C(Cl)Cl)S3` (stereo not given), the inhibition was inactive: 1.52%.

Consider `Cc1ccc(OP(=O)(Nc2ccc([N+](=O)[O-])cn2)Oc2ccc(C)cc2)cc1`, for which the inhibition is inactive: 26.7%.

Take `O=[N+]([O-])c1ccc(-c2cc([N+](=O)[O-])c(O)c([N+](=O)[O-])c2)cc1`: the inhibition is inactive: 6.5%.

As for `COc1cc(C(=O)NCC2(N3CCOCC3)CCCCC2)ccc1OCC(C)C`, the inhibition was inactive: 0.14%.

As for `C[As](=O)(O)c1cccc(C(=O)O)c1`, the inhibition is inactive: -2.18%.

On to `O=[As](O)(c1ccc(O)cc1)c1ccccc1O`, for which the inhibition is inactive: -11.4%.

Take `COc1ccc(N/C(=N/P(=O)(N2CCOCC2)N2CCOCC2)N2CCOCC2)cc1`: the inhibition was inactive: 20.9%.

Take `O=[N+]([O-])c1cc(Oc2ccc([N+](=O)[O-])cc2C(F)(F)F)cc([N+](=O)[O-])c1`: the inhibition was inactive: 19.2%.

With `COc1cc(I)ccc1[As](=O)(O)O`, the inhibition was inactive: 25%.

For `COc1ccc2nc(NP(=O)(c3ccccc3)c3ccccc3)sc2c1`, the inhibition was inactive: 9.52%.

Take `O=P1(N(CCCl)CCCl)Nc2ccccc2N1`: the inhibition is inactive: 34%.

As to `O=P1(N(CCCl)CCCl)OCCCN1CCCl` (stereo not given), the inhibition is inactive: 3.78%.

In the case of `Cc1cc(=O)[nH]c(N[N+](=O)[O-])n1`, the inhibition is inactive: -0.05%.

On to `O=C(OC1CN2CCC1CC2)C12CC3CC(CC(C3)C1)C2` (stereo not given), for which the inhibition is inactive: -5.5%.

Regarding `Cc1c2c(nc3ccccc13)SC(C(Cl)Cl)C2` (stereo not given), the inhibition was inactive: -2.19%.

As to `CCOP(=O)(Nc1cccc2ccccc12)OCC`, the inhibition is inactive: 7.32%.

As for `COc1cc(C2NCCC3(OCCO3)C2(C)C)cc(OC)c1OC` (stereo not given), the inhibition is inactive: 12.3%.

For `CCCOP(=S)(Nc1nc(N)cc(=O)[nH]1)OCCC`, the inhibition was inactive: 8.96%.

On to `Cc1ccc(NCCc2c([N+](=O)[O-])cc([N+](=O)[O-])cc2[N+](=O)[O-])cc1`, for which the inhibition is inactive: 19.5%.

As to `Nc1cccc2c([As](=O)(O)O)cccc12`, the inhibition was inactive: -0.01%.

Regarding `Cc1cccc(OCC(=O)OC2CN3CCC2CC3)c1` (stereo not given), the inhibition was inactive: 6.17%.

For the compound `O=[As](O)(c1cccc(O)c1)c1cccc(O)c1`, the inhibition was inactive: 34.1%.

For `CS(=O)(=O)c1ccc(Cl)c(NC(=O)COC(=O)C(O)(c2ccccc2)c2ccccc2)c1`, the inhibition was inactive: -6.91%.

As for `O=[As](O)(O)c1cccnc1`, the inhibition was inactive: 2.33%.

For the compound `COc1cc(C(=O)NCC2(N3CCOCC3)CCCCC2)cc(Cl)c1OC(C)C`, the inhibition was inactive: 14%.

As for `O=C(OC1CN2CCC1CC2)c1ccc(Cl)cc1` (stereo not given), the inhibition is inactive: 2.57%.

For `CN(C(=O)Cc1ccc(Cl)c(Cl)c1)[C@H]1CC[C@@]2(CCCO2)C[C@@H]1N1CCCC1`, the inhibition was inactive: -9.72%.

Consider `O=[N+]([O-])c1ccc2c(c1)nnn2O`, for which the inhibition was inactive: -5.18%.

In the case of `CN(C)C(=O)c1cc([N+](=O)[O-])cc2c1-c1c(cc([N+](=O)[O-])cc1[N+](=O)[O-])C2=O`, the inhibition is inactive: -1.23%.

Consider `CCOP1(=S)c2c(C)nn(CCC#N)c2N=C(c2ccc(F)cc2)N1C` (stereo not given), for which the inhibition was inactive: 10.2%.

On to `CN(C(=O)Cc1ccccc1)[C@@H]1CC[C@]2(CCCO2)C[C@H]1N1CCCC1`, for which the inhibition was inactive: -1.25%.

As to `N#CCCN(C(=O)COC(=O)C(O)(c1ccccc1)c1ccccc1)c1ccc(F)cc1`, the inhibition is inactive: -3.31%.

Consider `NC(=O)Nc1ccc([As](=O)(O)O)cc1`, for which the inhibition was inactive: -0.07%.

In the case of `O=C(O)COc1ccc([As](=O)(O)O)cc1[N+](=O)[O-]`, the inhibition is inactive: -4.76%.

`Nc1ccccc1[As](=O)(O)c1ccccc1`: the inhibition was inactive: 36.5%.

`CS(=O)(=O)c1cc([N+](=O)[O-])c2no[n+]([O-])c2c1`: the inhibition is inactive: 36%.

Regarding `O=P(Nc1nccs1)(Oc1ccccc1)Oc1ccccc1`, the inhibition was inactive: 13.4%.

In the case of `O=P(Nc1nccs1)(c1ccccc1)c1nc2ccccc2s1` (stereo not given), the inhibition was inactive: -3.66%.

Take `CCOP1(=S)c2c(C)nn(CCC#N)c2N=C(c2ccccc2F)N1C` (stereo not given): the inhibition was inactive: 5.78%.

`Cc1ccc(OCC(=O)OC2CN3CCC2CC3)cc1` (stereo not given): the inhibition is inactive: 8.67%.

As to `O=[As](O)(c1cccs1)c1cccs1`, the inhibition is inactive: 32.4%.

For the compound `NS(=O)(=O)c1cccc(NC(=O)COC(=O)C(O)(c2ccccc2)c2ccccc2)c1`, the inhibition was inactive: -17.3%.

On to `O=P1(Nc2ccc(Br)cn2)COc2ccccc2OC1`, for which the inhibition is inactive: -2.57%.

With `Nc1cccc([As](=O)(O)c2ccccc2)c1`, the inhibition is inactive: -4.72%.

Take `O=P1(Nc2ncccn2)COc2ccccc2OC1`: the inhibition is inactive: -1.77%.

On to `CCCC1OP(=O)(Nc2ccccc2)OCC1CC` (stereo not given), for which the inhibition was inactive: 1.83%.

For `O=C(/C=C/c1ccccc1)OC1CN2CCC1CC2` (stereo not given), the inhibition is inactive: -12.3%.

`CN(C)C1(CNC(=O)c2ccc(S(C)(=O)=O)cc2)CCCCC1`: the inhibition was inactive: 28.4%.

Regarding `Cc1ccc(C(=O)OC2CN3CCC2CC3)cc1` (stereo not given), the inhibition was inactive: 34.7%.

Regarding `CC1CCC(C(C)C)C(OP(=O)(Nc2ccccn2)c2ccccc2)C1` (stereo not given), the inhibition is inactive: 34.9%.

For `Cc1nn(-c2ccccc2)c2c1P(=O)(N1CCOCC1)N(C)C(c1ccccc1)=N2` (stereo not given), the inhibition is inactive: -3.48%.

With `CC1(CBr)Cn2c(nc3ccccc3c2=O)S1` (stereo not given), the inhibition was inactive: -5.01%.

Take `CN(C(=O)Cc1ccc(Cl)c(Cl)c1)[C@@H]1CCCC[C@H]1N1CCCC1`: the inhibition is inactive: -5.26%.

For `CC(C)/C=N\N=C(\N)N[N+](=O)[O-]`, the inhibition is inactive: 2.11%.

Take `COc1ccccc1CNC(=O)COC(=O)C(O)(c1ccccc1)c1ccccc1`: the inhibition was inactive: 5.67%.

With `CC(C)(C)C(=O)NC(Sc1ncccn1)C(Cl)(Cl)Cl` (stereo not given), the inhibition was inactive: 0.28%.

On to `Clc1n[nH]nc1-c1nn[nH][15n]1`, for which the inhibition was inactive: 19.2%.

On to `CCOP(=O)(Nc1ccc(C)cn1)OCC`, for which the inhibition is inactive: -2.95%.

Consider `CCOP(=O)(NC(=NC(C)c1ccccc1)NC(C)c1ccccc1)OCC` (stereo not given), for which the inhibition is inactive: 13.9%.

With `CCC1=CC2Cc3nc4ccc(Cl)cc4c(N)c3C(C1)C2` (stereo not given), the inhibition was inactive: -0.1%.

Consider `O=P1(Nc2ccccn2)COc2ccccc2OC1`, for which the inhibition was inactive: 0.81%.

Take `c1nnnn1CCn1cnnn1`: the inhibition is inactive: -2.81%.

Turning to `O=P(Nc1nccs1)(c1ccccc1)c1ccccc1`, the inhibition is inactive: 0.44%.

For `CC(C)C(=O)NC(Sc1ccccc1)C(Cl)(Cl)Cl` (stereo not given), the inhibition was inactive: 4.25%.

For `C(Cc1nn[nH]n1)Cc1nn[nH]n1`, the inhibition is inactive: 14.3%.

Turning to `Nc1ccc([As](=O)(O)c2ccc([N+](=O)[O-])cc2)cc1`, the inhibition is inactive: -1.27%.

For the compound `O=C(OC1CN2CCC1CC2)c1cccc(Cl)c1` (stereo not given), the inhibition was inactive: 2.96%.

Consider `CC(=O)NC(SC(=S)N(C)C)C(Cl)(Cl)Cl` (stereo not given), for which the inhibition is inactive: 36.5%.

In the case of `O=[N+]([O-])c1ncn(CCn2cnc([N+](=O)[O-])n2)n1`, the inhibition is inactive: 14.8%.

With `O=[N+]([O-])c1ccc(O)c(/C=N/Nc2ccc([N+](=O)[O-])cc2[N+](=O)[O-])c1`, the inhibition was inactive: 4.36%.

For the compound `O=[As](O)(c1ccccc1)c1ccc(O)cc1`, the inhibition was inactive: 32.7%.

`C[C@H]1OP(=O)(Oc2ccccc2)[C@H](O)[C@H](O)[C@H]1N=[N+]=[N-]` (stereo not given in full): the inhibition was inactive: -4.8%.

With `O=P(Nc1nc2ccccc2s1)(c1ccccc1)c1ccccc1`, the inhibition was inactive: 1.72%.

For `COc1ccc(N)c([N+](=O)[O-])c1[N+](=O)[O-]`, the inhibition was inactive: -7.04%.

Consider `CN(C)C1(CNC(=O)c2ccc(Cl)c(S(N)(=O)=O)c2)CCCCC1`, for which the inhibition was inactive: -1.72%.

`O=P(Nc1ccccn1)(c1ccc(Br)cc1)c1ccc(Br)cc1`: the inhibition was inactive: -9.47%.

With `O=c1c2cc([N+](=O)[O-])ccc2[nH]c2c([N+](=O)[O-])cc([N+](=O)[O-])cc12`, the inhibition was inactive: -22.6%.

`CN(C)C(=O)Oc1noc2ccccc12`: the inhibition is inactive: -17.1%.

As for `CC(NC(=O)COC(=O)C(O)(c1ccccc1)c1ccccc1)c1ccccc1` (stereo not given), the inhibition is inactive: 12.8%.
